The source of these data is ChEMBL document CHEMBL1142724, “Identification and biological evaluation of 4-(3-trifluoromethylpyridin-2-yl)piperazine-1-carboxylic acid (5-trifluoromethylpyridin-2-yl)amide, a high affinity TRPV1 (VR1) vanilloid receptor antagonist” (J Med Chem, 2005).

The chains behind the UniProt entries cited, without tags or fusion partners.
UniProt Q8NER1, whole entry: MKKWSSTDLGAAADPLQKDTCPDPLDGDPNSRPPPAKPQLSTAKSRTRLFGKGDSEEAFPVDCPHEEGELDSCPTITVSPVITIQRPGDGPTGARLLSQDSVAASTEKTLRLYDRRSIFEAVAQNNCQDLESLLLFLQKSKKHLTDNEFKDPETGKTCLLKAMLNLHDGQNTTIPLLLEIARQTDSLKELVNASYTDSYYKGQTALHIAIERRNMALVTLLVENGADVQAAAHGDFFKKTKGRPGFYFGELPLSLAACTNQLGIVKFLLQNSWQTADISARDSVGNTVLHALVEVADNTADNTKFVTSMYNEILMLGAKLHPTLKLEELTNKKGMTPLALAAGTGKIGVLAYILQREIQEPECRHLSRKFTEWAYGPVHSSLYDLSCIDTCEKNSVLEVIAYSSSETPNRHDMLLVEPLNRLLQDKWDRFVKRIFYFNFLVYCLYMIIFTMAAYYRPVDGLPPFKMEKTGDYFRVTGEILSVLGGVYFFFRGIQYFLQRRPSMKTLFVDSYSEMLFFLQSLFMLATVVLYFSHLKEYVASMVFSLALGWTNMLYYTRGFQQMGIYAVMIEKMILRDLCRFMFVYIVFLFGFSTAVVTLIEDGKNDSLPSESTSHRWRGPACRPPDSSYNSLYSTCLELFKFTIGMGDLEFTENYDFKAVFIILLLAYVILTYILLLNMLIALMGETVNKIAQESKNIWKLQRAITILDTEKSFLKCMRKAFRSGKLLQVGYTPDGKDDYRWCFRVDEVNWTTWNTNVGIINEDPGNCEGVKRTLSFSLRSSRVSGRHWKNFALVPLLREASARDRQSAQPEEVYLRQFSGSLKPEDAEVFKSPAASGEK

Assay [1] deals with T1, Transient receptor potential cation channel subfamily V member 1 (Homo sapiens, UniProt Q8NER1). In words: Inhibition of human transient receptor potential vanilloid 1 receptor (n=3). The method, boiled down:
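FLIPR Ca2+ influx in Fluo-3-loaded HEK293 cells stably expressing human or rat TRPV1. Compound was added at 0.3 nM–30 µM final, in half-log steps, for 3 min before capsaicin. Signal was the smaller of peak and end fluorescence after basal subtraction. IC50 came from a four-parameter logistic fit.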

In assay [2] the target is T1, Transient receptor potential cation channel subfamily V member 1. Put plainly: Displacement of [3H]resiniferatoxin from human Transient receptor potential vanilloid 1 receptor; (n=2). On the technique in general: In a radioligand displacement assay an active substance lowers the binding of a labelled ligand.
Assay [3] shares this target. In words: In vitro inhibition of PMA-activated human TRPV1 receptor in [Ca2+] influx assay. The method, boiled down: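 Human TRPV1-HEK293 cells were loaded with Fluo-3 and preincubated with compound for 3 min. They were then stimulated with 300 nM PMA, and fluorescence was monitored for 5–10 min on FLIPR. IC50 came from a four-parameter logistic fit.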
Assay [4] has the same target. In words: Inhibition of human transient receptor potential vanilloid 1 receptor (n=13).
The target is the same in assay [5]. In words: In vitro inhibition of anandamide activated human TRPV1 receptor in [Ca2+] influx assay.

Several values for one entry are separate records, joined by “and”; a condition that tells them apart may be missing. Identical values can stand only once.

As a reminder, the IC50 is the midpoint of a concentration-inhibition curve. High values mean lower potency, low ones higher potency. In the case of `O=C(Nc1ccc(C(F)(F)F)cc1)NC1CCN(c2ncccc2C(F)(F)F)CC1`, the IC50 in assay [1] is 5030 nM.

Broadly, the Ki is a dissociation constant, usually derived from enzyme kinetics or from competition with a known ligand. A higher Ki goes with a looser hold on the target. In the case of `O=C(Nc1ccc(C(F)(F)F)cc1)N1CCN(c2ncccc2C(F)(F)F)CC1`, the affinity in assay [2], expressed as Ki, was 38 nM. Further, the half-maximal inhibitory concentration (IC50) is 3 nM in assay [3]; 57 nM in assay [4]; 3 nM and 5 nM and 4 nM in assay [5].
